Experimental data published in patent US10822317B2, “Methods and compositions for wound healing” (QBiotics Limited, priority 2013, dated 2020).

Test system: HaCaT cells
Experiment: HaCaT scratch repopulation with Mitomycin C (migration study)
Conditions: 1 μg/mL

## Mitomycin C [reference compound]
  cytotoxicity in the culture system: not be cytotoxic
